miR-21 reporter – raises the signal of a miR-21 reporter | HeLa miR-21 FLuc reporter, luciferase, 48 h | Potency, µM (doses to about 38.3 µM) | 340,000 tested, under 10 active | AID 2288; active = well fitted rising curve with a large enough effect; inconclusive = small, poorly fitted or top-dose-only effect; inactive = no such curve, though single readings can be large or run the other way;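 note: miR-21 action dims this reporter so a rising signal means less miR-21 action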
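Using DMEM plus 10% FBS, HeLa miR-21-FLuc cells are incubated with test compounds (final up to about 40uM) for 48 hours; firefly luciferase signal is then imaged following reagent-mediated lysis.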
TDP1 inh – inhibitors of human tyrosyl-DNA phosphodiesterase TDP1. recombinant TDP1, AlphaScreen DNA substrate cleavage. Potency, µM (titrated, usually from 130 µM), actives largely listed as inhibitors. actives 0.28% (n = 350,000). AID 485290; further: nearly all actives have a fitted effect of over 40% in size
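Compounds were preincubated with Tdp1 (1 nM final) for 15 min at room temperature before substrate (15 nM final) started a 5 min reaction; beads (10 ug/ml final) were then added for 10 min before AlphaScreen detection.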
DT40 TDP1 no CPT – qHTS for Inhibitors of human tyrosyl-DNA phosphodiesterase 1 (TDP1): qHTS in cells in absence of CPT; DT40 Tdp1-/- hTDP1 cells, no CPT, ATP luminescence, 48 h; Potency, µM (titrated, usually from 46.2 µM), most hits filed as inhibitors; actives 15% (n = 420,000); AID 686978, 2013; further: nearly all actives have a fitted effect of over 55% in size
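Growth of hTDP1-complemented DT40 Tdp1-knockout cells is measured by ATP luminescence after at least 48 hr compound exposure at 37 °C, with DMSO substituting for the 20 nM CPT used in the parallel screen.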
TDP1 cell CPT – DT40-hTDP1 cell growth loss with CPT. AID 686979. actives 12% (n = 420,000). Potency, µM (series often up to 46.2 µM), hits mostly inhibitors. chicken DT40 Tdp1-/-;hTDP1 cells + 20 nM CPT, ATP luminescence, 48 h; further: nearly all actives have a fitted effect of over 55% in size
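Chicken DT40 Tdp1-/- cells stably complemented with human TDP1 were seeded at 400 cells/well in medium containing 20 nM camptothecin, exposed to pin-transferred compounds, and grown at 37 °C for at least 48 hr. Viability was read as ATP luminescence.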
uPA generation – inhibitors of cell surface uPA generation; cell surface uPA generation assay, qHTS; Potency, µM (doses to about 38.3 µM), most hits filed as inhibitors; actives 0.31% (n = 330,000); AID 540303; active means well fitted inhibition curve with a large enough effect; inconclusive means small, poorly fitted or top-dose-only effect; inactive means no such curve, though single readings can be large or run the other way; tested in mouse RAW 264.7 cells; further: nearly all actives have a fitted effect of over 55% in size
Numbers stand for hits; n = inactive; u = inconclusive; x = no result. In the library only some 16% were active in any assay of this set; here they are far more common. Unless noted, the call rests on the fitted dose curve; in most records, active means well fitted curve in the direction sought with a large enough effect; inconclusive means small, poorly fitted or top-dose-only effect, or another doubt; inactive means no such curve, though single readings can be large; an effect the other way counts as inactive or inconclusive.

SMILES | miR-21 reporter | TDP1 inh | DT40 TDP1 no CPT | TDP1 cell CPT | uPA generation
CCCN1CCN(C(=O)CN2C(=O)COc3ccc(S(=O)(=O)N(CC)CC)cc32)CC1 | n | n | n | n | n
CCN(CC)S(=O)(=O)c1ccc2c(c1)N(CC(=O)N1CCN(c3cccc(Cl)c3)CC1)C(=O)CO2 | n | n | u | 16µM | x
CCN(CC)S(=O)(=O)c1ccc2c(c1)N(CC(=O)N1CCN(c3ccc(Cl)cc3)CC1)C(=O)CO2 | n | n | 16µM | 16µM | x
CC(C)(C)c1cc(/C=N/NC(=O)Cc2nc3ccccc3[nH]2)cc(C(C)(C)C)c1O | n | n | u | u | n
COc1ccc(Cn2c(CCC(=O)Nc3cc(C)cc(C)c3)nc3cccnc32)cc1 | n | n | u | u | x
CCN(CC)c1ccc(C(=O)NCc2nc3cccnc3n2Cc2ccc(C)cc2)cc1 | n | n | 15µM | 18µM | x
Cc1ccc(CNC(=O)CCc2nc3cccnc3n2Cc2ccccc2)cc1 | n | n | u | 15µM | x
COc1ccc(Cn2c(CCC(=O)Nc3ccc(C)cc3)nc3cccnc32)cc1 | n | n | 15µM | u | n
O=C(N/N=C/c1ccc(N2CCOCC2)cc1)c1ccccc1OCCOc1ccccc1 | n | n | u | 16µM | n
CCOc1cccc(C(=O)N/N=C/c2ccoc2)c1 | n | n | n | n | n
CCOc1ccccc1C(=O)N/N=C/c1ccoc1 | n | 50µM | n | n | n
CSCCC(NC(=O)c1ccco1)C(=O)Nc1ccc(C)c(S(=O)(=O)N2CCOCC2)c1 (centres undefined) | x | x | n | n | n
CN1CCCC1CCOC(C)(c1ccccc1)c1ccc(Cl)cc1 (centres undefined) | x | n | 16µM | u | n
COc1ccc(C(=O)Nc2ccccc2CCC2CCCCN2C)cc1 (centres undefined) | x | x | n | n | x
Cc1cc(-c2ccco2)c(C#N)c2nc3ccccc3n12 | n | n | 18µM | 15µM | n
Cc1cc(C(C)C)n2c(nc3ccccc32)c1C#N | n | n | x | x | x
CC(C)c1cc(N2CCN(C(=O)c3ccco3)CC2)n2c(nc3ccccc32)c1C#N | n | n | 21µM | 15µM | n
CCn1c(N2CCN(C(=O)c3ccco3)CC2)nc2ccccc21 | n | n | n | n | n
Cn1cc(-c2nc3cnc(OCc4ccccc4)nc3n(CCC#N)c2=O)c2ccccc21 | x | x | n | n | x
COc1cc(N)c2ncccc2c1Br | x | x | n | n | n
O=C(N/N=C/c1ccc2c(c1)OCO2)c1ccc(NC(=O)c2ccccc2Cl)cc1 | n | n | u | n | n
O=C(N/N=C/c1ccc2c(c1)OCO2)c1cccc(NC(=O)c2ccccc2Cl)c1 | n | n | 8.2µM | 8.2µM | n
Cc1cccc(C(=O)Nc2cccc(C(=O)N/N=C/c3ccc4c(c3)OCO4)c2)c1 | n | n | 29µM | u | n
CNC(=O)c1cc(NC(=O)CCn2nc(-c3ccc(C)cc3)c3ccccc3c2=O)ccc1OC | n | n | u | u | n
CCC(C)(C(=O)NC1CCCCC1)N(CC1CCCO1)C(=O)Cc1cccs1 (centres undefined) | n | n | n | n | n
SMILES | miR-21 reporter | TDP1 inh | DT40 TDP1 no CPT | TDP1 cell CPT | uPA generation
CC1(C)CC(=O)C=C(C(=O)NC2CCCc3c2cnn3-c2cc(F)cc(F)c2)O1 (centres undefined) | n | n | u | u | n
CCOc1ccccc1NC(=O)C(OC(=O)c1cc(C)oc1C)c1ccccc1 (centres undefined) | n | n | 18µM | u | n
Cn1cccc1C(=O)C(=O)Nc1ccccc1C(F)(F)F | n | n | n | n | n
CCOC(=O)c1cnn(-c2ccccc2)c1-n1cccc1C(=O)C(=O)Nc1ccccc1C(F)(F)F | n | n | 21µM | u | n
COc1ccccc1-n1c(=O)[nH]c2c(C(N)=O)nc(CC(C)C)nc21 | n | n | n | n | n
COc1ccccc1-n1c(=O)[nH]c2c(C(N)=O)nc(-c3cccnc3)nc21 | n | x | 21µM | u | n
Cc1cc(C)nc(Nc2cccc3ccccc23)n1 | n | n | n | n | n
COc1ccc(O)c(C(=O)c2cc(C#N)c(=O)n(CC3CCCO3)c2)c1 (centres undefined) | n | n | u | u | n
CC(=O)c1cccc(NC(=O)COc2ccccc2C(=O)c2cc(C#N)c(=O)n(C3CCCCC3)c2)c1 | n | n | 12µM | u | n
N#Cc1cc(C(=O)c2cc(Br)ccc2O)cn(C2CCCCC2)c1=O | n | n | 20µM | 13µM | x
Cc1ccc(O)c(C(=O)c2cc(C#N)c(=O)n(CC3CCCO3)c2)c1 (centres undefined) | n | n | 21µM | 15µM | n
Cc1cc2nn(-c3ccc(F)cc3)nc2cc1NC(=O)c1cccc2ccccc12 | n | n | x | x | x
Cc1cc2c(cc1C)C(=O)C(Br)=C(N)C2=O | x | x | 16µM | 26µM | n
Cc1cc(-c2cc(C)c(N)cc2C)c(C)cc1N | x | x | u | u | n
COC(=O)c1ccccc1NC(=O)CSc1nncn1C | n | n | n | n | n
O=C(O)CCc1ccc(-c2ccc(Cl)cc2)o1 | n | n | n | n | n
COc1ccc(-c2ccc(CCC(=O)O)o2)cc1 | n | n | u | 21µM | n
Cc1ccccc1C(=O)NNS(=O)(=O)c1cccc([N+](=O)[O-])c1 | n | n | n | n | n
CCCNC(=O)N(C)C[C@H]1Oc2ncc(C#CCc3ccccc3)cc2C(=O)N([C@H](C)CO)C[C@H]1C | x | x | 10µM | 29µM | x
C[C@@H]1CN([C@@H](C)CO)C(=O)c2cc(Br)cnc2O[C@H]1CN(C)S(=O)(=O)c1ccccc1 | x | x | n | n | x
COc1ccc(C#Cc2cnc3c(c2)C(=O)N([C@@H](C)CO)C[C@@H](C)[C@@H](CN(C)CC2CCOCC2)O3)cc1 | x | x | 21µM | 18µM | x
Cc1ccccc1-c1cnc2c(c1)C(=O)N([C@@H](C)CO)C[C@@H](C)[C@H](CN(C)Cc1ccccc1F)O2 | x | x | 16µM | u | x
COc1ccc(S(=O)(=O)N(C)C[C@H]2Oc3ncc(Br)cc3C(=O)N([C@@H](C)CO)C[C@@H]2C)cc1 | x | x | 12µM | u | x
COc1ccc(C#Cc2cnc3c(c2)C(=O)N([C@H](C)CO)C[C@@H](C)[C@H](CN(C)C(=O)CN(C)C)O3)cc1 | x | x | n | n | x
COc1ccc(S(=O)(=O)Nc2cccc3c2O[C@@H](CN(C)CC2CC2)[C@@H](C)CN([C@@H](C)CO)C3=O)cc1 | x | n | n | n | n
C[C@H](CO)N1C[C@H](C)[C@H](CN(C)Cc2ccccc2)Oc2ncc(Br)cc2C1=O | x | x | n | n | x
C[C@@H]1CN([C@@H](C)CO)C(=O)c2cc(C#CC3CCCCC3)cnc2O[C@@H]1CN(C)S(=O)(=O)c1ccc(F)cc1 | x | x | 15µM | 16µM | x

Screens: PubChem BioAssay, National Center for Advancing Translational Sciences (NCATS)
